The target in the assay is human O-GlcNAcase (Homo sapiens (Human), UniProt O60502). The assay can be described thus: Assay for determination of KI values for inhibition of O-GlcNAcase activity (fluorescence-based hOGA). The assay is classed as biochemical. Particulars: purified human O-GlcNAcase, 4-Methylumbelliferyl N-acetyl-β-D-glucosaminide substrate, pH 7.0, Cheng-Prusoff. As for the experimental part: Assay for Determination of KI Values for Inhibition of O-GlcNAcase Activity
Experimental Procedure for Kinetic Analyses:
Enzymatic reactions are carried out in a reaction containing 50 mM NaH2PO4, 100 mM NaCl and 0.1% BSA (pH 7.0) using 2 mM 4-Methylumbelliferyl N-acetyl-β-D-glucosaminide dihydrate (Sigma M2133) dissolved in ddH2O, as a substrate. The amount of purified human O-GlcNAcase enzyme used in the reaction is 0.7 nM. Test compound of varying concentrations is added to the enzyme prior to initiation of the reaction. The reaction is performed at room temperature in a 96-well plate and is initiated with the addition of substrate. The production of fluorescent product is measured every 60 sec for 45 min with a Tecan Infinite M200 plate-reader with excitation at 355 nm and emission detected at […], with 4-Methylumbelliferone (Sigma M1381) used to produce a standard curve. The slope of product production is determined for each concentration of compound tested and plotted, using standard curve fitting algorithms for sigmoidal dose response curves. The values for a four parameter logistic curve fit of the data are determined.
KI values are determined using the Cheng-Prusoff equation; the Km of O-GlcNacase for substrate is 0.2 mM.

By UniProt entry, the sequences of proteins in these tests, tags left out. Where a name states a change or a piece, a line headed by the entry shows the natural chain unless it says otherwise.
UniProt O60502: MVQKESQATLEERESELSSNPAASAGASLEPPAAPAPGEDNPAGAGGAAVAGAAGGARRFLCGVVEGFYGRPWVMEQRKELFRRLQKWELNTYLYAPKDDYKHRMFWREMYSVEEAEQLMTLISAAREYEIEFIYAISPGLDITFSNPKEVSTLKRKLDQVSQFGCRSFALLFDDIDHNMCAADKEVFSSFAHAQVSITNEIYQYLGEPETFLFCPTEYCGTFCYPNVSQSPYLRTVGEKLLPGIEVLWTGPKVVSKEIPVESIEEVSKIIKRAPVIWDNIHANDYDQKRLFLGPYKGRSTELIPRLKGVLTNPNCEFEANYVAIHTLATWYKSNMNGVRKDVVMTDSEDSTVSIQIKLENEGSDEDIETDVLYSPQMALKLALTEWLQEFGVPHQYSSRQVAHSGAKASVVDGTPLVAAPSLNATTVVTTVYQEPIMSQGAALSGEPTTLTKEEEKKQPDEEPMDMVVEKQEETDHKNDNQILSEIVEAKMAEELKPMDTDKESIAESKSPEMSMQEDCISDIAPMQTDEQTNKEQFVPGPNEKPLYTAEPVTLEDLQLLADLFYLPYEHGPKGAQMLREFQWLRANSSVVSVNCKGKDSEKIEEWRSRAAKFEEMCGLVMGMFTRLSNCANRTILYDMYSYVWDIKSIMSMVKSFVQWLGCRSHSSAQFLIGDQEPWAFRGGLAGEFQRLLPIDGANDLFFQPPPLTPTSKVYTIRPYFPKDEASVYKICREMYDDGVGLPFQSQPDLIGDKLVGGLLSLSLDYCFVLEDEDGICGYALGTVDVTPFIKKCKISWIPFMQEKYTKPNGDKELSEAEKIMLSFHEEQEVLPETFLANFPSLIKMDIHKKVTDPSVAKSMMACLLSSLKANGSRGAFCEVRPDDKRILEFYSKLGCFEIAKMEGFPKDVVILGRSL

In turn, `CC1=N[C@@H]2[C@@H](O)[C@H](O)[C@@H](CO)C[C@@H]2O1` (racemic) [Example 13, rac-(3aR,4R,5R,6R,7aS)-6-(hydroxymethyl)-2-methyl-3a,4,5,6,7,7a-hexahydrobenzo[d]oxazole-4,5-diol] came in with a Ki of 7.4 nM.

(Values after US9120781B2, “Selective glycosidase inhibitors and uses thereof” (Simon Fraser University, priority 2010, dated 2015).)
